Data on two compounds can be found in ChEMBL document CHEMBL4742387, “Condensed tricyclic compounds as protein kinase inhibitors” (2018).

In this assay the target is T1, Serine/threonine-protein kinase haspin (Homo sapiens, UniProt Q8TF76).
T1 sequence (Q8TF76 whole entry): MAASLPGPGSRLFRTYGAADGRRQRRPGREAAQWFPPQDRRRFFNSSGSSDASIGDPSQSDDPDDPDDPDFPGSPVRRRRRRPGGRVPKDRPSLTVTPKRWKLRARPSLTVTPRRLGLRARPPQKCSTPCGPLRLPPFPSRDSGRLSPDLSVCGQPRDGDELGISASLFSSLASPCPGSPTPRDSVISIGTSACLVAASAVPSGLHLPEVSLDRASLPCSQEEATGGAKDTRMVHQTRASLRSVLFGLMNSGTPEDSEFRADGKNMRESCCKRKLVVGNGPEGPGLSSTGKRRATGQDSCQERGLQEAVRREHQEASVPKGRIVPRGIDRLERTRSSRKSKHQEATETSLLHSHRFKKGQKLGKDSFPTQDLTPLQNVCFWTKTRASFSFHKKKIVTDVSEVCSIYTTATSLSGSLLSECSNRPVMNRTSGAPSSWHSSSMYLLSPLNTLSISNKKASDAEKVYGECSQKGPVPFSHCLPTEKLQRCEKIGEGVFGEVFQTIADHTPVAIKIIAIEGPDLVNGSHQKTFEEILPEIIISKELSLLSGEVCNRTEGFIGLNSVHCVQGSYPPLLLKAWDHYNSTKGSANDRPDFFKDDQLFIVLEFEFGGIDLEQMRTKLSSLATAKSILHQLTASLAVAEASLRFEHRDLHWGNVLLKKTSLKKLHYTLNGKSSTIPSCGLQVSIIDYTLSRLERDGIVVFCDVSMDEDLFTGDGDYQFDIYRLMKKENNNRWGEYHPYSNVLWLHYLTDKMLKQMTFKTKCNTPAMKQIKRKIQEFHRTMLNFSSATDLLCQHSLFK
In words: Inhibition of GST-tagged recombinant human haspin kinase domain incubated for 60 mins by ADP-Glo luminescent kinase assay. Background: In ADP-Glo the light output rises with the ADP produced.

Turning to `NC(=O)c1cc2c([nH]1)-c1ccncc1OC2C1CCCCC1` (configuration not stated), the IC50 – broadly, the concentration that inhibits the measured activity by half – was 5.15 µM. As to `CCn1c(C(N)=O)cc2c1-c1ccncc1OC21CCCCC1`, the IC50 was determined as 0.0165 µM.
